# Laboratory results reported in published antibiotic growth screens (doi:10.1038/s41589-023-01349-8).
# The list shows a part of the results.
# Test system: A. baumannii ATCC 17978
# Experiment: relative growth (fraction of control); higher = less inhibition
# Settings: 50 µM
row,SMILES,relative growth
1,CC1CC[C@@]2(OC1)O[C@H]1CC3C4CC[C@@H]5C[C@@H](O)CC[C@]5(C)C4CC[C@]3(C)[C@H]1[C@@H]2C (stereo partly specified),0.766
2,N#Cc1cnc2c(C(N)=O)cnn2c1N,1.04
3,Nc1ccc(S(=O)(=O)Nc2ncccn2)cc1,1.03
4,C=CCC[C@@H](Cc1ccc(F)cc1)C(=O)O[C@H](CNC(=O)[C@@H](CC=C)CC(=O)N[C@H](CO)Cc1ccccc1)c1ccccc1,0.967
5,COc1ccc(N2C(=O)N3CCc4cc(OC)c(OC)cc4[C@@H]3[C@@H](Cc3ccccc3)[C@H]2COC(=O)NCCCCCC(=O)NO)cc1,0.99
6,C[C@H](O)C#Cc1ccc2c(c1)O[C@H](CN(C)C(=O)Nc1ccccc1)[C@H](C)CN([C@@H](C)CO)S2(=O)=O,1.08
7,O=C(CCCCCNC(=O)OC[C@]12N=C3SCc4ccccc4CN3[C@H](c3ccccc3O1)[C@H]2COC(=O)c1ccccc1)NO,0.921
8,C[C@H]1CN([C@@H](C)CO)S(=O)(=O)c2ccc(C#Cc3ccc(F)cc3)cc2O[C@H]1CN(C)S(=O)(=O)c1ccc(F)cc1,0.903
9,Cc1ccc2c(c1)C(=O)C[C@@H](c1ccc(Cl)cc1Cl)O2,1.12
10,C[C@]12C=CC(=O)C=C1CC[C@@H]1[C@@H]2[C@@H](O)C[C@@]2(C)[C@H]1CC[C@]2(O)C(=O)COC(=O)c1ccc(CO[N+](=O)[O-])cc1,1.02
11,Cc1cc(C(=O)N2CCNC(=O)C2(C)C)no1,0.933
12,CS(=O)(=O)O.Oc1ccc(C2CNCCc3c2cc(O)c(O)c3Cl)cc1 (stereo unspecified),1.03
13,COc1cc2ccc(=O)oc2c(O[C@H]2O[C@@H](CO)[C@@H](O)[C@@H](O)[C@@H]2O)c1O,1.08
14,CO[C@H]1CN(C)C(=O)c2cc(NC(=O)C3CC3)ccc2OC[C@@H](C)N(C(=O)Cc2ccccn2)C[C@H]1C,1.03
15,O=c1c(O)c(-c2ccccc2)oc2ccccc12,0.963
16,C[C@@H](NC(=O)C[C@H]1C=C[C@H](NC(=O)CN2CCOCC2)[C@@H](CO)O1)c1ccccc1,1.11
17,Nc1ccc(NC(=O)CCN2CCOCC2)cc1,0.973
18,CCN[C@@H]1C[C@H](N)[C@@H](O[C@H]2OC(CN)=CC[C@H]2N)[C@H](O)[C@H]1OC1OC[C@](C)(O)[C@H](NC)[C@H]1O.O=S(=O)(O)O.O=S(=O)(O)O (stereo partly specified),1.17
19,C[C@@H]1CN([C@@H](C)CO)C(=O)CCCn2nncc2CO[C@H]1CN(C)Cc1cccc2c1OCCCO2,1.15
20,COc1cccc(S(=O)(=O)Nc2ccc3c(c2)[C@@H]2C[C@H](CC(=O)NCC(F)(F)F)O[C@@H](CO)[C@@H]2O3)c1,0.976
21,O=C1CC[C@@H](C(=O)O)N1,0.993
22,COCCNC(=O)C[C@@H]1CC[C@@H]2[C@H](COC[C@H](O)CN2S(=O)(=O)c2ccccc2C)O1,0.952

row,SMILES,relative growth
1,CC(=O)N1CCN(c2ccc(OCC3CO[C@](Cn4ccnc4)(c4ccc(Cl)cc4Cl)O3)cc2)CC1 (stereo partly specified),0.746
2,O=C(NCCCn1ccnc1)C(=O)NC[C@H]1OCCN1S(=O)(=O)c1ccc(F)cc1,1.01
3,O=C(CN1CCOCC1)N[C@@H]1CC[C@H](CCNS(=O)(=O)c2ccccc2F)O[C@@H]1CO,1.14
4,O=C(O)CCCNC(=O)c1cncc(O)c1,1.13
5,COc1cccc(NC(=O)N2C[C@@H](O)COC[C@@H]3O[C@@H](CC(=O)NCCCN4CCOCC4)CC[C@H]32)c1,0.953
6,CN(C)Cc1cn(CC[C@H]2CC[C@@H](NC(=O)Cc3cccnc3)[C@H](CO)O2)nn1,0.937
7,CCOc1ccccc1C(N)=O,0.967
8,CN(C)c1ccc2nc3ccc(N(C)C)cc3[s+]c2c1.O.[Cl-],1.18
9,O=C(NCCCN1CCOCC1)c1cccnc1,1.06
10,Cc1ccc2nc(Nc3ccccc3)nc(-c3ccccc3)c2c1,1.22
11,O=C(C[C@@H]1CC[C@@H]2[C@H](COC[C@H](O)CN2S(=O)(=O)c2ccccc2)O1)NCCN1CCCC1,0.942
12,CN1C=C(C(=O)OCCS(C)(=O)=O)C(C(=O)OCCS(C)(=O)=O)=CC(CCCO)=C[C@@H]1C1CC1,1.08
13,CCC(=O)NO,0.914
14,CC(C)(C)c1ccc(OC[C@@H](O)CN)cc1,0.768
15,O=C(C[C@H]1C=C[C@@H](NC(=O)CN2CCOCC2)[C@@H](CO)O1)NCCc1ccncc1,1.02
16,NS(=O)(=O)c1ccc(C(=O)O)cc1,0.949
17,O=C(C[C@@H]1CC[C@H]2[C@@H](COC[C@@H](O)CN2S(=O)(=O)c2ccccc2)O1)NCc1ccc2c(c1)OCO2,1.02
18,O=C(C[C@H]1CC[C@@H]2[C@H](COC[C@@H](O)CN2S(=O)(=O)c2ccc(Cl)cc2)O1)N[C@H]1CCN(Cc2ccccc2)C1,1.04
19,COc1ccc(S(=O)(=O)N[C@@H]2C=C[C@@H](CC(=O)N3CCN(c4ccccc4)CC3)O[C@H]2CO)cc1,1.08
20,CN1CCC(=C2c3ccccc3Sc3ccccc32)CC1.O=C(O)/C=C\C(=O)O,0.789
21,COc1cc2c3cc1Oc1cc(ccc1O)C[C@@H]1c4c(cc(OC)c(O)c4Oc4ccc(cc4)C[C@@H]3N(C)CC2)CC[N+]1(C)C.Cl.O.O.O.O.O.[Cl-],1.14
22,CCn1cc(C(=O)O)c(=O)c2cc(F)c(N3CCNC(C)C3)c(F)c21.Cl (stereo unspecified),0.166

row,SMILES,relative growth
1,C[C@@H]1CC[C@]2(C(=O)O)CC[C@]3(C)C(=CCC4[C@@]5(C)CC[C@H](O)C(C)(C)C5CC[C@]43C)C2[C@H]1C (stereo partly specified),1.13
2,CCNC1CN(CCCOC)S(=O)(=O)c2sc(S(N)(=O)=O)cc21 (stereo unspecified),1.26
3,C=C1CCOC(=O)[C@@H](NC(C)=O)CCCN(O)C(=O)/C=C(\C)CCOC(=O)[C@H](NC(C)=O)CCCN(O)C(=O)/C=C(\C)CCOC(=O)[C@@H](NC(C)=O)CCCN(O)C(=O)C1,0.947
4,O=C(C[C@H]1CC[C@@H](NC(=O)CN2CCOCC2)[C@H](CO)O1)NCCc1ccccc1,0.988
5,C=CCOC1=N[C@@H]2[C@@H](C(=O)N(C)C(=O)N2C)N1C,1.01
6,Cc1nc(C)c(Cl)c(O)c1Cl,0.83
7,C=C/C=C/[C@@H]1C(=C)CN([C@@H](Cc2ccccc2)C(=O)OC)[C@H]1[C@@H](O)CCn1cc(CCC(=O)NO)nn1,1.26
8,COC(=O)[C@@H](NC(=O)Cn1cc(CCC(=O)NO)nn1)c1ccccc1,1.03
9,C[N+](C)(C)CCCCNC(=O)[C@H]1C[C@H]2C(=O)N3CCC[C@H]3C(=O)N2[C@H]1c1cccc(OCCO)c1,1.11
10,Cc1ccc(N2NC(=O)/C(=N/O)C2=O)cc1C,1.11
11,Cc1c(O[C@@H]2O[C@H](COC(=O)C[C@@](C)(O)CC(=O)O)C[C@H](O)[C@H]2O)occc1=O,1.02
12,Cc1cc(=O)n2nc(S(C)(=O)=O)nc2[nH]1,0.985
13,Cc1ccc(S(=O)(=O)N(C)C[C@H]2Oc3cc(Br)ccc3S(=O)(=O)N([C@@H](C)CO)C[C@H]2C)cc1,0.896
14,C[C@H](C(=O)O)N1C(=O)CCC1=O,0.858
15,C[C@H]1CN([C@@H](C)CO)S(=O)(=O)c2ccc(-c3cncnc3)cc2O[C@H]1CN(C)C(=O)Cc1ccccc1,0.905
16,O=C(O)P(=O)(O)O,0.107
17,CCS(=O)(=O)NCC[C@@H]1CC[C@@H](NS(=O)(=O)c2ccccc2C)[C@@H](CO)O1,0.926
18,CCN(CC)CCOC(=O)C1(C2CCCCC2)CCCCC1.Cl,0.951
19,O=[N+]([O-])c1ccc(/C=C/CN(C/C=C/c2ccc([N+](=O)[O-])cc2)CCNS(=O)(=O)c2cccc3cnccc23)cc1,0.842
20,COCCCOc1ccnc(CS(=O)c2nc3ccccc3[n-]2)c1C.[Na+] (stereo unspecified),1.27
21,O/N=C1\CCCCc2c1[nH]c1ccc(C3CCCCC3)cc21,0.917
22,O=C(NCCN1CCOCC1)[C@@]1(CCS(=O)(=O)c2ccccc2)COC(c2ccc(OCCCO)cc2)=N1,1.07

row,SMILES,relative growth
1,C[C@H](CO)N1C[C@H](C)[C@@H](CN(C)S(=O)(=O)c2ccccc2F)Oc2ncc(C#Cc3cccnc3)cc2C1=O,0.866
2,CC(C)Cn1cnc2ccccc21,0.848
3,CCN(CC)CCNC(=O)C(=O)NC1CC1,1.01
4,O=C1c2ccccc2[C@](Cc2ccccc2I)(C(=O)NCC(F)(F)F)[C@H](c2ccc(CO)cc2)N1C1CCCCC1,1.12
5,COc1ccc2cccc(CCNC(C)=O)c2c1,1.03
6,C[C@H](CO)N1C[C@H](C)[C@@H](CN(C)Cc2ccc(F)cc2)Oc2cc(C#CC3CC3)ccc2S1(=O)=O,1.22
7,N#CC(=Cc1ccc(O)c(O)c1)C(N)=O,1.07
8,COc1cc(C=O)ccc1O,0.846
9,CC(C)NC(=O)N[C@H]1CC[C@@H](CCN)O[C@H]1CO,1.05
10,CC1(C)CC(=O)C(=CNC(CO)(CO)CO)C(=O)C1,0.899
11,CC[C@H]1CN(C)N1C(=O)[C@@H]1CCCO1,1.13
12,CN(C)CCC=C1c2ccccc2CCc2ccccc21.Cl,0.78
13,CN(C)c1ccc(O)c2c1C[C@H]1C[C@H]3[C@H](N(C)C)C(O)=C(C(N)=O)C(=O)[C@@]3(O)C(O)=C1C2=O.Cl,0.208
14,COc1cccc(NC(=O)N2C[C@H](O)COC[C@@H]3O[C@@H](CC(=O)NCCCN4CCOCC4)CC[C@H]32)c1,1.12
15,C=CCC[C@H](Cc1ccc(F)cc1)C(=O)O[C@@H](CNC(=O)[C@H](CC=C)CC(=O)N(CCO)Cc1ccccc1)c1ccccc1,1.27
16,CC(C)NC(=O)N[C@H]1C=C[C@H](CC(=O)NCCN2CCCC2)O[C@H]1CO,0.949
17,COc1ccccc1-c1cnc2c(c1)C(=O)N([C@H](C)CO)C[C@H](C)[C@@H](CN(C)C(=O)c1cccnc1)O2,1.06
18,Cc1ccc(S(=O)(=O)N[C@@H](Cc2ccccc2)C(=O)NCCn2cc(-c3cccc(/C=C/C(=O)NO)c3)nn2)cc1,0.938
19,Nc1ccccc1OCc1ccccc1,0.877
20,Cc1cn(C2CC(N=[N+]=[N-])C(CO)O2)c(=O)[nH]c1=O (stereo unspecified),1.1
